Test results from PubChem BioAssay (NCI).
The entries are a selection whose mix differs from that of the whole data set. Some structures have more than one record in an assay (separate samples or runs), and their calls can disagree. The source made the active and inactive calls. Cut-off read from the data, not from the text of the source: active = growth inhibition above about 70%; inactive = the rest.

Test: NCI Yeast Anticancer Drug Screen. Data for the rad18 strain (AID 177)
Conditions: S. cerevisiae rad18 mutant growth inhibition, hits give high values
Description: Growth inhibition of yeast strains with defined genetic alterations is measured as a screen for potential anti-cancer activity. Selected strains with alterations in DNA damage repair or cell cycle control were exposed to compounds and growth inhibition was measured relative to vehicle treated controls. The strain used in this assay is rad18

Question: What does the source list for COc1ccc([N+](=O)[O-])c(C[N+](C)(CCCl)CCCl)c1?
Answer: growth inhibition (at 1.2 µM): inactive: 11%; growth inhibition (at 3.7 µM): inactive: 28%; growth inhibition (at 11.0 µM): active: 74%; growth inhibition (at 33.0 µM): active: 94%; growth inhibition (at 100.0 µM): active: 96%

Question: Which growth inhibition (at 1.2 µM) does the source give for Cc1cccc(C[N+](C)(CCCl)CCCl)c1[N+](=O)[O-] here?
Answer: inactive: 30%

Question: And the growth inhibition (at 3.7 µM)?
Answer: active: 78%

Question: What about the growth inhibition (at 11.0 µM) of the same compound?
Answer: active: 94%

Question: And the growth inhibition (at 33.0 µM)?
Answer: active: 95%

Question: And the growth inhibition (at 100.0 µM)?
Answer: active: 96%

Question: What does the source list for COc1ccc(C[N+](C)(CCCl)CCCl)c([N+](=O)[O-])c1?
Answer: growth inhibition (at 1.2 µM): active: 70%; growth inhibition (at 3.7 µM): active: 73%; growth inhibition (at 11.0 µM): active: 86%; growth inhibition (at 33.0 µM): active: 89%; growth inhibition (at 100.0 µM): active: 92%

Question: For Cc1ccc([N+](=O)[O-])c(C[N+](C)(CCCl)CCCl)c1, which growth inhibition (at 1.2 µM) is on record?
Answer: inactive: 25%

Question: What about the growth inhibition (at 3.7 µM) of the same compound?
Answer: active: 79%

Question: And the growth inhibition (at 11.0 µM)?
Answer: active: 94%

Question: And the growth inhibition (at 33.0 µM)?
Answer: active: 94%

Question: What about the growth inhibition (at 100.0 µM) of the same compound?
Answer: active: 96%

Question: With Cn1cnc([N+](=O)[O-])c1C[N+](C)(CCCl)CCCl as the compound, how does the growth inhibition (at 1.2 µM) read?
Answer: inactive: 11%

Question: And the growth inhibition (at 3.7 µM)?
Answer: inactive: 54%

Question: What about the growth inhibition (at 11.0 µM) of the same compound?
Answer: active: 88%

Question: What about the growth inhibition (at 33.0 µM) of the same compound?
Answer: active: 93%

Question: What about the growth inhibition (at 100.0 µM) of the same compound?
Answer: active: 94%

Question: With ClCCN1CCCCC1CCl (stereo not given) as the compound, how does the growth inhibition (at 1.2 µM) read?
Answer: inactive: 7%

Question: What about the growth inhibition (at 3.7 µM) of the same compound?
Answer: inactive: 31%

Question: What about the growth inhibition (at 11.0 µM) of the same compound?
Answer: active: 83%

Question: And the growth inhibition (at 33.0 µM)?
Answer: active: 96%

Question: And the growth inhibition (at 100.0 µM)?
Answer: active: 97%
